Test results reported in ChEMBL document CHEMBL5214883, “Comprehensive review for anticancer hybridized multitargeting HDAC inhibitors” (Eur J Med Chem, 2021).

The chains behind the UniProt entries cited, without tags or fusion partners.
UniProt Q13547, whole entry: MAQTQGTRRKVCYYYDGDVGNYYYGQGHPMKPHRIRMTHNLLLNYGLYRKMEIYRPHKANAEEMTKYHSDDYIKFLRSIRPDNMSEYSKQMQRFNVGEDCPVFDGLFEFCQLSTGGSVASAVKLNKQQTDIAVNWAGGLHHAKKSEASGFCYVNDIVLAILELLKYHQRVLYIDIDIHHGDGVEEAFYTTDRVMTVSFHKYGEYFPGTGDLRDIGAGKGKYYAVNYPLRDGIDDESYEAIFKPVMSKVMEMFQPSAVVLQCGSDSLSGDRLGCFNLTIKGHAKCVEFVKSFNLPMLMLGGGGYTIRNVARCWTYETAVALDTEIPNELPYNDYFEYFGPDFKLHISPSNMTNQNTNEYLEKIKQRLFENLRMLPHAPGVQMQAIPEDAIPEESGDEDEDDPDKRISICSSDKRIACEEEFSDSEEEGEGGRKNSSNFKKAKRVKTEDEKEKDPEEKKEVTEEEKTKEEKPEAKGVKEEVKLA
UniProt Q92769, whole entry: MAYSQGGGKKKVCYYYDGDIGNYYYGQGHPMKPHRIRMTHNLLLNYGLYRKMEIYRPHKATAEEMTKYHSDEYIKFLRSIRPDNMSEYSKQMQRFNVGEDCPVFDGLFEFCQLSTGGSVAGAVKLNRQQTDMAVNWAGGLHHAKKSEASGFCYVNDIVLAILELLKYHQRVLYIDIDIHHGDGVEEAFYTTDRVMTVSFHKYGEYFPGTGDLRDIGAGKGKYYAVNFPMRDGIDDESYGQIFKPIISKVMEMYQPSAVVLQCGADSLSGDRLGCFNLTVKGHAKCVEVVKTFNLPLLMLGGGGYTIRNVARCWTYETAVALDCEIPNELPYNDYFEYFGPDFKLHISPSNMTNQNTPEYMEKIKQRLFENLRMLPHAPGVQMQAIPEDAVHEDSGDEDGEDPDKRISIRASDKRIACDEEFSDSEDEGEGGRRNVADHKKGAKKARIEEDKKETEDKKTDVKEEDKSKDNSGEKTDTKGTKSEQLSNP

Columns and labels:
Histone deacetylase 1 = Histone deacetylase 1 (Homo sapiens, UniProt Q13547); assay: Inhibition of HDAC1 (unknown origin)
Histone deacetylase 2 = Histone deacetylase 2 (Homo sapiens, UniProt Q92769); assay: Inhibition of HDAC2 (unknown origin)

## O=C(CCCCCOc1no[n+]([O-])c1S(=O)(=O)c1ccccc1)NO
Histone deacetylase 1
  IC50: 38 µM
Histone deacetylase 2
  IC50: 380 µM
